Source: patent publication EP2204363A1, “New disubstituted phenylpiperidines/piperazines as modulators of dopamine neurotransmission” (NSAB, Filial af NeuroSearch Sweden AB, Sverige, priority 2004, dated 2005)

Test system: amphetamine-induced hyper-locomotion
Details: rats pre-treated with d-amphetamine 1.5 mg/kg i.p.; test compound s.c.; last 45 minutes of one hour; range covers 95% of fits

COc1cccc(C2(O)CCN(C)CC2)c1OC [Example 1 and 2 in US 4,415,736]
ED50 reduction of amphetamine-induced hyper-locomotion: Inactive
